# Apparent affinities of Ab-95 variants for a coronavirus HR2 peptide

From the AlphaSeq antibody data of Engelhart et al. 2022 (doi:10.1038/s41597-022-01779-4), copy in the FLAb collection.

Target: peptide PDVDLGDISGINAS, taken from heptad repeat 2 (HR2) of SARS-CoV-2 spike.

Ab-95 is the parent antibody, in scFv form: VH, then the linker GGGGSGGGGSGGGGS, then VL. The heavy chain is unchanged in all variants.
VH: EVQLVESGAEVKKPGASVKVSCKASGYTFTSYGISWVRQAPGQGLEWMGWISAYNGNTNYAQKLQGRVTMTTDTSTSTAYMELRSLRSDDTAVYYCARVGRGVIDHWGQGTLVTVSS
VL: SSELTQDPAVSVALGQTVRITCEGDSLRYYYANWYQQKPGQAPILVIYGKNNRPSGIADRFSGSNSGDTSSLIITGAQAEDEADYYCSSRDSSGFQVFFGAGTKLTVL

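The starting antibody came from a phage panning campaign against this peptide. Library AAYL52 holds single substitutions and randomly drawn double and triple substitutions in the CDRs. AlphaSeq pools MATa yeast showing the antibodies with MATalpha yeast showing the peptide. Mating (16 h, 30 °C) was followed by selection of diploids and sequencing of their barcodes. The ratio of observed to expected reads was calibrated, replicate by replicate, on BCL2-family standards whose Kd was known from biolayer interferometry. The assay was run in three technical replicates.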

Variants are written as CDR1, CDR2 and CDR3 of the light chain (limits as in the source). Parent: EGDSLRYYYAN, GKNNRPS, SSRDSSGFQVF. Numbers give log10(Kd / nM), so 0 is 1 nM and 3 is 1 µM. Smaller is tighter. A mean of the replicates is given; it leaves out those without a signal. An entry "nd" has no value in the source: the pair was not observed among the diploids in that replicate. This suggests poor binding but is not conclusive.

For EGDSLRYYYAN / GKNNRPS / SSRESSGFKVT, the assay gave 2.78, 3.62, 2.77 (mean 3.06; controls 2 of 9).
For EGDSLRYYYAN / GKNNRPS / YSDDSSGFQVH, the assay gave nd, nd, nd (controls 0 of 9).
For EGDSLDYYYAN / GKNNRPW / SSRDSMGFQVF, the assay gave nd, nd, 4.48 (controls 1 of 9).
For EGDSLRYYYAN / GKNNMPS / DSRDSSGFQYF, the assay gave nd, nd, nd (controls 1 of 9).
For EGDSLRYYYAN / GKNNRCS / SSRDSSGFQLF, the assay gave nd, nd, nd (controls 1 of 9).
For EGDSLRYYYAN / SENNRPW / SSRDSSGFQVF, the assay gave 2.92, nd, nd (controls 3 of 9).
For EGDSLRYYGDN / GKNNRPS / SSRDSWGFQVF, the assay gave nd, 4.73, nd (controls 3 of 9).
For EGDMLRYYYAN / GKNNRPS / SSMDSSGFQVF, the assay gave 4.18, nd, nd (controls 4 of 9).
For EGDSLRYNYAN / GKNNRPS / SSRISSGFQVF, the assay gave 4.58, 3.55, 3.93 (mean 4.02; controls 4 of 9).
For EGDSLRYYYNN / YKNNRPS / SSRDSSGFQVF, the assay gave 4.44, nd, 3.65 (mean 4.05; controls 5 of 9).
For EGDSLRYYYAN / GKNNRPS / SGRDSSGFQQM, the assay gave 3.08, 2.50, 2.11 (mean 2.56; controls 0 of 9).
For EGDSLAYYYAN / GKPNRPS / SSRDSSGFQVF, the assay gave 3.45, 3.33, nd (mean 3.39; controls 2 of 9).
For ECDSLRYYYAN / GKNNRPR / SSRDSSGFQVF, the assay gave 3.12, 3.01, 2.62 (mean 2.92; controls 0 of 9).
For EGDSLRYYHAN / GKNNRPS / SSRDSSGFRDF, the assay gave 3.39, 4.42, nd (mean 3.90; controls 5 of 9).
For EKDSLRYYYAN / GKNNRPS / SGRDSDGFQVF, the assay gave 4.21, nd, nd (controls 1 of 9).
For EGDSLRYYYAN / GKNNMPS / SSRDSSGRQPF, the assay gave 5.20, nd, nd (controls 1 of 9).
For EPDSLRHYYAN / GKDNRPS / SSRDSSGFQVF, the assay gave 3.62, 3.67, 4.04 (mean 3.78; controls 2 of 9).
For EGDSLRYEHNN / GKNNRPS / SSRDSSGFQVF, the assay gave 2.46, 2.02, 1.58 (mean 2.02; controls 1 of 9).
For EGASLRYYYAN / GKSNRPS / SSRDISGFQVF, the assay gave 3.20, 2.76, 3.17 (mean 3.04; controls 5 of 9).
For EGDSLRYYYAN / GKNGRPS / SSRDSSGFFVF, the assay gave 2.57, 2.88, 2.60 (mean 2.68; controls 5 of 9).
For EGDSLRQYYAN / GKNNRPS / SARDSNGFQVF, the assay gave 3.04, 2.53, 2.34 (mean 2.64; controls 2 of 9).
For EGDSLYYYYAN / WKNNRPS / SSRDSSGFQVF, the assay gave 3.95, nd, nd (controls 0 of 9).
For EGDSLRYYYAN / GKNNRPG / SSRDSSTFQVT, the assay gave 2.56, 2.14, 3.08 (mean 2.60; controls 1 of 9).
For EGDSLRYYRAN / GKNNRPS / SARDSSGFQYF, the assay gave 2.50, 2.79, 3.10 (mean 2.80; controls 0 of 9).
For EGDSLRYYYAN / GKNNRAY / HSRDSSGFQVF, the assay gave nd, nd, nd (controls 3 of 9).
For EGDSLIYYKAN / GKNNRPS / SSRDSSGFQVF, the assay gave nd, 3.74, 4.28 (mean 4.01; controls 0 of 9).
For EGDSLRYYYAN / GKNNRPS / SSRDMSGFQVF, the assay gave 2.66, 2.33, 2.14 (mean 2.38; controls 0 of 9).
For EGDYLRYYYAN / GKNNRPS / SVRDSSGPQVF, the assay gave 2.94, 3.10, 3.37 (mean 3.14; controls 6 of 9).
For EFDSLRYKYAN / GKINRPS / SSRDSSGFQVF, the assay gave 3.60, nd, nd (controls 2 of 9).
For EGDSLTYYYAN / GKNNRPS / PSRDSSAFQVF, the assay gave 4.08, nd, 2.29 (mean 3.18; controls 2 of 9).
For EGDSLRYYYMN / GKNNRPS / SSGDSIGFQVF, the assay gave nd, 4.08, 2.65 (mean 3.36; controls 5 of 9).
For EGDSWRYYYAN / GQNNRPS / SSRDSSCFQVF, the assay gave nd, 5.02, nd (controls 2 of 9).
For EGDSLRYYYAN / GKNNEPS / SSRSSSGFQMF, the assay gave 3.91, 3.77, nd (mean 3.84; controls 1 of 9).
For EGDSNRYWYAN / GKNNTPS / SSRDSSGFQVF, the assay gave nd, nd, nd (controls 0 of 9).
For EGDILRYYYAN / GKNNRPS / RWRDSSGFQVF, the assay gave 3.72, 3.64, 3.92 (mean 3.76; controls 3 of 9).

The 3 strongest on average among those seen in every replicate, once more:

{"CDR-L1": "EGDSLRYEHNN", "CDR-L2": "GKNNRPS", "CDR-L3": "SSRDSSGFQVF", "log10 Kd (nM) by replicate": "2.46, 2.02, 1.58", "mean log10 Kd (nM)": "2.02", "signal with controls": "1/9"}
{"CDR-L1": "EGDSLRYYYAN", "CDR-L2": "GKNNRPS", "CDR-L3": "SSRDMSGFQVF", "log10 Kd (nM) by replicate": "2.66, 2.33, 2.14", "mean log10 Kd (nM)": "2.38", "signal with controls": "0/9"}
{"CDR-L1": "EGDSLRYYYAN", "CDR-L2": "GKNNRPS", "CDR-L3": "SGRDSSGFQQM", "log10 Kd (nM) by replicate": "3.08, 2.50, 2.11", "mean log10 Kd (nM)": "2.56", "signal with controls": "0/9"}

Nonspecific signal, from three strains lacking the peptide, appeared in 28% of pairings of library AAYL52, centred on 3.91 (5% of these signals below 2.90); values are not corrected for it. The control count says in how many pairings with the empty strains this scFv gave a signal.